Target: FLAG-tagged PDE2A1 (amino acids 2-941) (Homo sapiens (Human), UniProt O00408)
Assay: IMAP TR-FRET PDE2A phosphodiesterase enzymatic assay
Conditions: not given

Amino acid sequences for entries named in this document (tags omitted). Residues count along the entry.
UniProt O00408, 2-941: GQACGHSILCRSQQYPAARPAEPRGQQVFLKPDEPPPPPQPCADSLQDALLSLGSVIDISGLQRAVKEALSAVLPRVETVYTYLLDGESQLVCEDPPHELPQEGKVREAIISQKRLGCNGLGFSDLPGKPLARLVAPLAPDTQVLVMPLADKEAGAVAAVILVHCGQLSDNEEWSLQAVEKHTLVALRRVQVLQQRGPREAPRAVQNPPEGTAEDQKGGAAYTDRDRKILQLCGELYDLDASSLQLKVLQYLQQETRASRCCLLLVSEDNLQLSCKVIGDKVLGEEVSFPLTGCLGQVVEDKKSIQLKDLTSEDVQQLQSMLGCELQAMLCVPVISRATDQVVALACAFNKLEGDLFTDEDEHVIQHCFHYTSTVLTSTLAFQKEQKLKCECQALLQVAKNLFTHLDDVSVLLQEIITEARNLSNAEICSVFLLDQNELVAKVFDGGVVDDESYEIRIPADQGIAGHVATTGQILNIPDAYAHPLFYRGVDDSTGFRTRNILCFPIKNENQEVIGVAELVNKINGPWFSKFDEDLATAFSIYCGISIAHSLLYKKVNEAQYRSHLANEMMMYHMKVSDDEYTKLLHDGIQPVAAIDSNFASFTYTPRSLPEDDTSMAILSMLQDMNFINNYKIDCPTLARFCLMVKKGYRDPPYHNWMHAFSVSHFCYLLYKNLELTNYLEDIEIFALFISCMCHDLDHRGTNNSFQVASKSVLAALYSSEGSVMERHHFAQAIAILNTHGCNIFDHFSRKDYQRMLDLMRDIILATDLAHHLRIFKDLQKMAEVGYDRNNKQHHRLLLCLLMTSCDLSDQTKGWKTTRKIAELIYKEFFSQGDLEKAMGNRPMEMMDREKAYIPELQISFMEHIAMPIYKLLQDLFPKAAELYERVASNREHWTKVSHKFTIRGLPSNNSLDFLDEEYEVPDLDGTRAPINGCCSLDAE

Compound	IC50 [nM]
Cc1cc(C2CN(C(=O)c3ccc4c(c3)OC(F)(F)O4)CCO2)n2ncnc2n1 (centres unmarked) [Example 560, 4-(2,2-Difluoro-2H-1,3-benzodioxole-5-carbonyl)-2-{5-methyl-[1,2,4]triazolo[1,5-a]pyrimidin-7-yl}morpholine]	1000 to 10000
Cc1cc(C2CN(C(=O)c3cccc(C(C)C)c3)CCO2)n2ncnc2n1 (centres unmarked) [Example 561, 2-{5-Methyl-[1,2,4]triazolo[1,5-a]pyrimidin-7-yl}-4-[3-(propan-2-yl)benzoyl]morpholine]	100 to 1000
Cc1cc(C2CN(C(=O)C3CCc4ccccc4O3)CCO2)n2ncnc2n1 (centres unmarked) [Example 564, 4-(3,4-Dihydro-2H-1-benzopyran-2-carbonyl)-2-{5-methyl-[1,2,4]triazolo[1,5-a]pyrimidin-7-yl}morpholine]	100 to 1000

Same assay, conditions: IMAP TR-FRET, 200 nM FAM-cAMP substrate, 11-point half-log dose-response

Compound	PDE2 (pIC50)
COc1ccc2cc(C(=O)N3CCOC(c4cc(C)nc5ncnn45)C3)ccc2c1 (centres unmarked) [Example 557, 4-(6-Methoxynaphthalene-2-carbonyl)-2-{5-methyl-[1,2,4]triazolo[1,5-a]pyrimidin-7-yl}morpholine]	>7
Cc1cc(C2CN(C(=O)c3cc(-c4ccccc4)nn3C)CCO2)n2ncnc2n1 (centres unmarked) [Example 558, 4-(1-Methyl-3-phenyl-1H-pyrazole-5-carbonyl)-2-{5-methyl-[1,2,4]triazolo[1,5-a]pyrimidin-7-yl}morpholine]	>7
Cc1cc(C2CN(C(=O)c3ccc4cc(F)ccc4c3)CCO2)n2ncnc2n1 (centres unmarked) [Example 559, 4-(6-Fluoronaphthalene-2-carbonyl)-2-{5-methyl-[1,2,4]triazolo[1,5-a]pyrimidin-7-yl}morpholine]	>7
Cc1cc(C2CN(C(=O)C3CCc4cc(F)ccc4O3)CC(F)(F)C2)n2ncnc2n1 (centres unmarked) [Example 562, 3,3-Difluoro-1-(6-fluoro-3,4-dihydro-2H-1-benzopyran-2-carbonyl)-5-{5-methyl-[1,2,4]triazolo[1,5-a]pyrimidin-7-yl}piperidine]	>7
Cc1cc(C2CN(C(=O)C3CCc4ccccc4O3)CC(F)(F)C2)n2ncnc2n1 (centres unmarked) [Example 563, 1-(3,4-Dihydro-2H-1-benzopyran-2-carbonyl)-3,3-difluoro-5-{5-methyl-[1,2,4]triazolo[1,5-a]pyrimidin-7-yl}piperidine]	>7

Reference: patent publication US11186582B2, “Substituted [1,2,4]triazolo[1,5-a]pyrimidin-7-yl compounds as PDE2 inhibitors” (DART NEUROSCIENCE (CAYMAN) LTD., priority 2014, dated 2021)
